Yeast mating assay B: variants of the scFv Ab-14

Target: peptide PDVDLGDISGINAS, taken from heptad repeat 2 (HR2) of SARS-CoV-2 spike.

Parent: Ab-14, a human scFv built as VH, a (GGGGS)3 linker, VL. Only the CDRs of the heavy chain vary.
VH: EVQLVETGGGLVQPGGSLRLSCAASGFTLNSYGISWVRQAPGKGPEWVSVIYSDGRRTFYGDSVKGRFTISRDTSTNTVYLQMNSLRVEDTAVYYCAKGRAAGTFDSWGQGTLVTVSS
VL: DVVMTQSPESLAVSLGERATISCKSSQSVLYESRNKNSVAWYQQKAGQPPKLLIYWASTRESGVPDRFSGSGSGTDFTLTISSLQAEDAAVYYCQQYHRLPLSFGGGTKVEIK

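These sequences belong to a second round, designed from the earlier measurements on random variants of the parent. Their group label is 14H_Rand (Rand: our label for a block that the file lists under HC and that is probably the random mutants of the ten best first-round binders). AlphaSeq pools MATa yeast showing the antibodies with MATalpha yeast showing the peptide. Pairs that bind mate more often; barcode pairs of the diploids are counted by sequencing. The ratio of observed to expected reads was calibrated, replicate by replicate, on BCL2-family standards whose Kd was known from biolayer interferometry. Mating was done six times.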

Each variant's VH is given in full. Numbers give log10(Kd / nM), so 0 is 1 nM and 3 is 1 µM. Smaller is tighter. Where no diploid with the target was found in that replicate, the entry reads "ND": below detection, most likely a poor binder, though not proof of it. As a blank, each scFv also met three strains without target: over all heavy chain designs, 1% of these pairings were detected, typically at 2.08 and seldom below 0.84. For each scFv, signals with the empty controls are counted beside the result, with their mean in brackets.

VH	log10 Kd (nM) by replicate	control signals
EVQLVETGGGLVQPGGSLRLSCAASGFTLNDYGISWVRQAPGKGPEWVSVIYSDGRRTQYKDSVKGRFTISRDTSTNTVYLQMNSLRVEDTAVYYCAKLRAAGTFDSWGQGTLVTVSS	ND ND ND ND ND ND	0 of 18
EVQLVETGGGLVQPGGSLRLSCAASGFTLMSYGINWVRQAPGKGPEWVSVIYCDGRRTFYGDSVKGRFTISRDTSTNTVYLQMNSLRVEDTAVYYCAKLRAAGTALSWGQGTLVTVSS	ND ND ND ND ND ND	0 of 18
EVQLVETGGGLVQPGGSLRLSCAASGFTLNQYGISWVRQAPGKGPEWVSVIYSEGRRTFYSDSVKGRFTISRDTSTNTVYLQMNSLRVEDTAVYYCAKGRAAGFFDSWGQGTLVTVSS	ND ND ND ND ND ND	0 of 18
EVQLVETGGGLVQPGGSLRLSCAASGFTLDSYMISWVRQAPGKGPEWVSVIYSDGRRNFYGDSVKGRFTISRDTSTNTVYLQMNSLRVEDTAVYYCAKGRAAGTAFSWGQGTLVTVSS	ND ND ND ND ND ND	1 of 18 (2.36)
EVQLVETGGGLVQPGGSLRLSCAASGFTLNETGISWVRQAPGKGPEWVSVIYSDGRRTFYTDSVKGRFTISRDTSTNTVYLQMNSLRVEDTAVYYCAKGRFAGTFDNWGQGTLVTVSS	ND ND ND ND ND ND	0 of 18
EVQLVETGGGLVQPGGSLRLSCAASGFYLDSYGISWVRQAPGKGPEWVSVIRSDGRRTFYGDSVKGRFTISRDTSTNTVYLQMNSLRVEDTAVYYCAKGRAAGTALSWGQGTLVTVSS	ND ND ND ND ND ND	0 of 18
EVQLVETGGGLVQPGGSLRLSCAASGFTLNSYGISWVRQAPGKGPEWVSVIYADGLRTFYGDSMKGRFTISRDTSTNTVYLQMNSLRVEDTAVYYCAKGRAAGTNKSWGQGTLVTVSS	1.81 ND 2.73 ND 1.88 1.38	0 of 18
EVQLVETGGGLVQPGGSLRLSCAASGFTLNSYFISWVRQAPGKGPEWVSVKYSDGRGTPYDDSVKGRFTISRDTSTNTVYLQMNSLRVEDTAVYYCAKGQLAGTGDSWGQGTLVTVSS	ND ND ND ND ND ND	0 of 18
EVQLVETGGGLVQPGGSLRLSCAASFKTLDSYGGSWVRQAPGKGPEWVSVIYSDGRRTFYGDSVKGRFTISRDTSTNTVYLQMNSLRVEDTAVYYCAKGRAAGTALSWGQGTLVTVSS	ND ND ND ND ND ND	0 of 18
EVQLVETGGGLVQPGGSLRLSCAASGFTLNECGISWVRQAPGKGPEWVSVIYLDNRRTFYTDSVKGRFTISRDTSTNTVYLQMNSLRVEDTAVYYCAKGRFAGTFKSWGQGTLVTVSS	ND ND ND ND ND ND	0 of 18
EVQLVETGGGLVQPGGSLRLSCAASGFTLNSYGSSWVRQAPGKGPEWVSVIYSDGRRTFQSDSVKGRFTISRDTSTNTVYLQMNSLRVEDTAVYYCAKGWAGGTFDSWGQGTLVTVSS	ND ND ND ND ND ND	0 of 18
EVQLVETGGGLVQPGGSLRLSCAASGFTLNEYGTSWVRQAPGKGPEWVSVIYSDGRRTFETDNVKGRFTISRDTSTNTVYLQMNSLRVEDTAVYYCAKERFAGTFDSWGQGTLVTVSS	ND ND ND ND ND ND	0 of 18
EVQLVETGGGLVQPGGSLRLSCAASHFNLNEYGISWVRQAPGKGPEWVSVIYEDGRRTFYTDSVKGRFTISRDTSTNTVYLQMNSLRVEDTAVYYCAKGRFAGTFDSWGQGTLVTVSS	ND ND ND ND ND ND	0 of 18
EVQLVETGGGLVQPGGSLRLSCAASGFTLNSYGISWVRQAPGKGPEWVSVIYADGRRTYYGDSVKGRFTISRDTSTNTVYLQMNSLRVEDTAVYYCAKGRAAGTNKSWGQGTLVTVSS	ND ND ND ND ND ND	0 of 18
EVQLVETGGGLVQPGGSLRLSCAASGFDLNSYGISWVRQAPGKGPEWVSVIYYNGQRTFEGDSVKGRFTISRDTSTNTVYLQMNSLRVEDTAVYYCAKGTAAGWFNSWGQGTLVTVSS	ND ND ND ND 1.72 ND	0 of 18
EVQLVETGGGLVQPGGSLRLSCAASGFTLNDYGISWVRQAPGKGPEWVSVIYSDGRRTQYIQSVKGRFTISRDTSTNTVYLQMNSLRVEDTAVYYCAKQRAAGTFDSWGQGTLVTVSS	2.44 ND ND ND ND ND	0 of 18
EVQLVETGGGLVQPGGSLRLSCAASGFTLNDYCISWVRQAPGKGPEWVSVIYSDGRRTFYGDSVKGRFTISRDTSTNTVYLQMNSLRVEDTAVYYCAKARAALTFISWGQGTLVTVSS	ND ND ND ND ND ND	0 of 18
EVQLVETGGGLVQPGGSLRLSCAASGFTLYSYGISWVRQAPGKGPEWVSVIYADGDRTFYGDHVKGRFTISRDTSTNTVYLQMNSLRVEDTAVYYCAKGRAAGTNKSWGQGTLVTVSS	ND ND ND ND ND ND	0 of 18
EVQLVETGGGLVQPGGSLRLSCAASGFTLNSYGSSWVRQAPGKGPEWVSVIYADGRRTFQGDSVKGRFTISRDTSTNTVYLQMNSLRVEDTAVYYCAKGRAAGTNKSWGQGTLVTVSS	ND ND ND ND ND ND	0 of 18
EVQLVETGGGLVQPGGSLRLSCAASGFDLNSYGISWVRQAPGKGPEWVSVIYSDGRRTFYGDSVKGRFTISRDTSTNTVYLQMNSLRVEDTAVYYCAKGRAALWFNSWGQGTLVTVSS	ND ND 1.33 ND ND ND	0 of 18
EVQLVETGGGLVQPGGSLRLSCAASGFTLDSYGISWVRQAPGKGPEWVSVIYRDGRRTFYGDSVKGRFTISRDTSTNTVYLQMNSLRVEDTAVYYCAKGRRAGTYLSWGQGTLVTVSS	ND ND ND ND ND ND	0 of 18
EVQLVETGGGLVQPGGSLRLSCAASGFTLNSYGILWVRQAPGKGPEWVSVIYADGRRTIHGDGVKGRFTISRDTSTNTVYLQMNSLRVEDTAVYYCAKGRAAGTNKSWGQGTLVTVSS	ND ND ND ND ND ND	0 of 18
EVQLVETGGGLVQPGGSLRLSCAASGFTLNHYGISWVRQAPGKGPEWVSVIYSDGRRTFYDDSVKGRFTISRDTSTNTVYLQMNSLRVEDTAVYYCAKGQLPGTFDSWGQGTLVTVSS	ND 2.30 ND ND ND ND	0 of 18

2 of these entries, quoted again:

VH	log10 Kd (nM) by replicate	control signals
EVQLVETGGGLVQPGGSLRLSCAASGFTLNSYFISWVRQAPGKGPEWVSVKYSDGRGTPYDDSVKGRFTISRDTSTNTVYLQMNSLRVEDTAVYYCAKGQLAGTGDSWGQGTLVTVSS	ND ND ND ND ND ND	0 of 18
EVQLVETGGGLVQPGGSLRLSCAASGFDLNSYGISWVRQAPGKGPEWVSVIYYNGQRTFEGDSVKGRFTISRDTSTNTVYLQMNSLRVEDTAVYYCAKGTAAGWFNSWGQGTLVTVSS	ND ND ND ND 1.72 ND	0 of 18

The parent sequence was in this pool as ten entries: three were never detected, three once, and four in most replicates, with averages from 0.34 to 2.37. The range of this assay differs from that of the first round, and the authors advise against merging the two. The authors averaged sequences with at least three values out of six and counted those with two or fewer as poor binders.

Data: MIT Lincoln Laboratory AlphaSeq set, Li et al. 2023, doi:10.1038/s41467-023-39022-2, as distributed in FLAb.